The experiment is described as follows: It is the ratio of ED50 for stimulation of locomotor activity to that of inhibition of locomotor activity. In kind it is functional.
Consider `CCCN1CCC=C2c3nc(N)sc3CC[C@@H]21` (stereo in doubt; (+)-6), for which the Ratio was 22.6. For the molecule `CCCN1CCC=C2c3nc(N)sc3CC[C@@H]21` (stereo in doubt; (-)-6), the Ratio was greater than 12. Next, `CCCN1CCC=C2c3nc(N)sc3CCC21` (racemic): 16.1.
